Results on one substance are retold here after US11325982B2, “Biparatopic and multiparatopic antibodies with common light chain and method of use” (XUANZHU BIOPHARMACEUTICAL CO., LTD., priority 2017, dated 2022).

Data set [1] has as its system BT474 Herceptin-drug resistant cells (BT474-HerDR). Briefly: Inhibition of proliferation of Herceptin-resistant BT474 cells (CellTiterGlo viability). The data set is classed as cell-based. The settings on record: 72 hours, FIG. 13. As for the experimental part: 24 hours later, 10 μl of antibody construct diluted to various concentrations with the medium were added to the cell culture. After the cells were cultured for additional 72 hours, cell viability was determined by CellTiterGlo (Promega). The wells without addition of antibody were set as 100% cell viability and Docetaxel was used as a positive control for cytotoxicity. The data were then fitted into 4-parameter sigmoidal curve to generate IC50. The samples were done in triplicate.

A further data set concerns NCI-N87 cells. The experiment in a line: Inhibition of proliferation of NCI-N87 cells (CCK-8). The data set is classed as cell-based. The settings on record: 72 hours, FIG. 14. The method, then:
The growth curve of NCI-N87 was initially determined by plating cells at various densities in 96-well tissue culture plates. Cells were gown in RPMI-1640 medium supplemented with 10% fetal bovine serum (FBS).
24 hours later, 10 μl of antibody construct diluted to various concentrations with the medium were added to the cell culture. After the cells were cultured for additional 72 hours, the cell proliferation rates were determined by adding 10 μl of CCK-8 reagent (Sigma). After 3 hour of incubation without light, the plates were read at OD450 nm. The wells without addition of antibody were set as 100% cell viability and Docetaxel was used as a positive control for cytotoxicity. The data were then fitted into 4-parameter sigmoidal curve to generate IC50. The samples were done in triplicate.

With trastuzumab [T22, reference compound], in data set [1], the “effect on cell viability (cytotoxicity)” value is “had no effect”. Also, the growth inhibition result in the data set on NCI-N87 cells is on record as “minimal effect”.
